Ab-14 light chain CDR variants: yeast mating affinities

Data: MIT Lincoln Laboratory AlphaSeq set, Li et al. 2023, doi:10.1038/s41467-023-39022-2, as distributed in FLAb.

Binding partner: SARS-CoV-2 spike HR2 peptide, sequence PDVDLGDISGINAS.

Ab-14 is the parent antibody, in scFv form: VH, then a 15-residue (Gly4Ser)3 linker, then VL. The heavy chain is unchanged in all variants.
VH: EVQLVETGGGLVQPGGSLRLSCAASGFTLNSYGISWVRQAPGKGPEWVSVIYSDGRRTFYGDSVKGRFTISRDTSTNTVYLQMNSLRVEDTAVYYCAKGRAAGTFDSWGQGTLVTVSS
VL: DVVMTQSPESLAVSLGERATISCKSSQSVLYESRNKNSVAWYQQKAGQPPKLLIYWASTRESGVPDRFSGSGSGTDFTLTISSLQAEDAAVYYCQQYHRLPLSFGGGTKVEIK

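Designed CDR sequences, proposed from the first random library and measured here. Group labels follow the data file (Ctrl: baseline library sampled from a position-specific scoring matrix, with some repeated check sequences; Rand: our label for a block that the file lists under HC and that is probably the random mutants of the ten best first-round binders; En: ensemble of fine-tuned language models; GP: Gaussian process model; HC: hill climbing; Gen: genetic algorithm; Gibbs: Gibbs sampling; a sequence that several methods proposed may carry one label only). The assay is AlphaSeq: two haploid yeast populations carry antibody and antigen on their surface. After mating in shaken culture at 30 °C for 16 h, diploids were selected and their barcode pairs sequenced. The ratio of observed to expected reads was calibrated, replicate by replicate, on BCL2-family standards whose Kd was known from biolayer interferometry. Mating was done six times.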

Variants are written as CDR1, CDR2 and CDR3 of the light chain (limits as in the source). Parent: KSSQSVLYESRNKNSVA, WASTRES, QQYHRLPLS.
Kd is apparent (estimated from mating counts) and averaged on the log scale over replicates with a signal. Smaller is tighter.
An entry "not detected" has no value in the source: the pair was not observed among the diploids in any replicate. This suggests poor binding but is not conclusive.
Nonspecific signal, from three strains lacking the peptide, appeared in 4% of pairings of all light chain designs, centred on 430 nM (5% of these signals below 38 nM); values are not corrected for it. The control count says in how many pairings with the empty strains this scFv gave a signal.
A sequence measured in both rounds can read differently, since the two assays cover different ranges.
The authors averaged sequences with at least three values out of six and counted those with two or fewer as poor binders.

| apparent Kd | replicates with signal | empty controls | CDR-L1 | CDR-L2 | CDR-L3 | group |
|---|---|---|---|---|---|---|
| 3.1 nM | 6/6 | 1/18 | RMNKFMSGATEAKNSMA | GAEHRAQ | QSYHRLPLS | En_Gibbs |
| 6.8 nM | 6/6 | 0/18 | KLYQSEWYESRMKNNVA | NASLRES | QQYHRLPLS | GP_Gibbs |
| not detected | 0/6 | 0/18 | KISWNALIESKNLNSVA | EMTTREY | QDYDRLPLS | En_HC |
| 21 nM | 6/6 | 0/18 | MISSISSMGQFAKNSVA | QASLRNA | QQYDRLPLI | En_Gen |
| not detected | 0/6 | 0/18 | KSSQGVLMETRNKNSVA | HASTRES | QKYHRLPLS | Ctrl |
| not detected | 0/6 | 1/18 | SLAESQHMESRNKNSVA | DNSTRES | QHYHRLPLS | En_HC |
| 1.3 nM | 6/6 | 1/18 | HSSPSVLYESRNHNSVA | NASTRES | QQYHRLPLS | GP_HC |
| 59 nM | 5/6 | 1/18 | IMSEGQEEDAARLNNIA | DHYTRAT | QQYARLPLH | En_Gibbs |
| 15 nM | 5/6 | 0/18 | KLIQSVAMVSRNKDSIA | DNSTRES | QQYHRLPLS | En_HC |
| 730 pM | 6/6 | 0/18 | KMSFVYGYESTNSNSVA | DASTRED | QQYHRLPLS | GP_Gibbs |
| not detected | 0/6 | 1/18 | MLSEVLHMLGVAKNSIA | DLVIRAN | QQYHRLPLM | En_Gen |
| 3.5 nM | 6/6 | 1/18 | KIGMTLNTLMHQKNNVA | DLVTREQ | QQYHRLPLS | En_Gen |
| 1.8 nM | 6/6 | 2/18 | KIFQSVQYESRNKNSVA | NASDRFS | QQYHRLPLS | GP_Gibbs |
| 2.4 nM | 6/6 | 0/18 | KLQQQELYESRNWNSVA | NASDRQS | QQYHRLPLS | GP_Gibbs |
| 20 nM | 6/6 | 2/18 | KIASSMNLTSHHINSVA | QSTTREE | QQYNHLPLS | En_HC |
| 510 pM | 6/6 | 1/18 | CLSQSVLYESRNKNSVA | NASTRES | QQYHRLPLS | GP_Gen |
| not detected | 0/6 | 0/18 | KSEQSVDYESANKNSVA | WASTRES | QQYHRLYLM | Ctrl |
| 1.3 nM | 6/6 | 1/18 | KSSISYLYESRNHNSVA | EASTREQ | QQYHRLPLS | GP_HC |
| 2.5 nM | 6/6 | 0/18 | KSSTSWLYESRNKNPVA | GASQRES | QQYHRLPLS | GP_HC |
| not detected | 0/6 | 0/18 | HSSGSVLYPSRNKNSVR | NASTRES | QQYHRLPGS | Rand |
| 3.8 nM | 6/6 | 0/18 | KLSQQVLYESRNKNSVA | NASQRLS | QCYHRLPLS | GP_Gibbs |
| 1.3 nM | 6/6 | 1/18 | KVSISDLLESRNKNSVA | EASTRES | QQYHRLPLS | GP_HC |
| 7.6 nM | 6/6 | 2/18 | HMSMITLQGMRARNSVA | QMTTREN | QQYDRLPLS | En_Gen |
| 880 nM | 2/6 | 0/18 | YISMRLDMSDDIQYAVA | DANIATA | QDYFRLPLA | En_Gibbs |
| 7.3 nM | 5/6 | 0/18 | RLDFQDLMWSYDANNIA | GATLSIE | QQYGRLPLT | En_Gibbs |
| 28 nM | 6/6 | 1/18 | KVRQSTQYESRNKNSVA | WASTRES | QQYHRLPLS | GP_HC |
| 970 pM | 6/6 | 0/18 | KLPQSELYESRNKNSVA | EASTRLS | QQYHRLPLS | GP_Gen |
| 1.2 nM | 6/6 | 2/18 | KFLPSWLYESRNKNSVA | HASTREQ | QQYHRLPLS | GP_HC |
| 1.4 nM | 6/6 | 1/18 | KLSQSVLYESRNKNSVA | NGSTRES | QDYHRLPLS | GP_Gen |
| 1.1 nM | 6/6 | 1/18 | KVSQSVLYESRNKNSVA | HASTRED | QQYHRLPLS | GP_HC |
| 640 pM | 6/6 | 0/18 | KQSQSVPYEWRNKNSVA | DASTRES | QQYHRLPLS | GP_HC |
| 410 pM | 6/6 | 0/18 | HLSPSVLYESRNKNSVA | NGSTREV | QQYHRLPLS | GP_HC |
| not detected | 0/6 | 0/18 | KLMQSMGYEQRNFNSVA | QASQRSQ | QQYHRLPLS | GP_Gibbs |
| 820 pM | 6/6 | 1/18 | KVSISYLGESRNKNSVA | EASTRES | QQYHRLPLS | GP_HC |
| 450 pM | 6/6 | 1/18 | KLEQGFLYENRNKNSVA | SASQRES | QQYHRLPLS | GP_Gibbs |
| 13 nM | 6/6 | 1/18 | IIDQIMYHGNKRANSIA | QASERLN | QQYHHLPLF | En_Gen |
| 14 nM | 6/6 | 0/18 | KLQWSMLYESRNVNSVA | DASTRES | QQYHRLPLS | GP_Gibbs |
| 6.6 nM | 6/6 | 0/18 | KQSQSVLYESRNKNSVA | MASIRES | QQYHRLPLS | GP_HC |
| 64 nM | 5/6 | 0/18 | MISQLMNLGQFAINSVA | QASIRNQ | QQYDRLPLA | En_Gen |
| 1.4 nM | 6/6 | 1/18 | KSSISYLYESRNENSVA | EASTRED | QQYHRLPLS | GP_HC |
| 6.2 nM | 6/6 | 0/18 | MISDLMQYGSRNKNPIA | NASTREY | QQYHRLPLE | En_HC |
| 18 nM | 6/6 | 1/18 | KFSQSVLYESRNKNGVA | WASTRES | QQYHRLPLS | Ctrl |
| 1.1 nM | 6/6 | 0/18 | MLSVSVLYEDRNKNSVA | GASTRES | QQYHRLPLS | Ctrl |
| 8.5 nM | 6/6 | 2/18 | KQSQSQLYESGNGNSVA | NASVRED | QQYHRLPLM | GP_Gibbs |
| 3.4 nM | 6/6 | 1/18 | KISGTYQKESKNKNSVA | EMVNRES | QQYDRLPLS | En_HC |
| 30 nM | 6/6 | 2/18 | KSSQSVLYESTNKNSVA | WASTRCS | QQYHRLPLS | Ctrl |
| 1.8 nM | 6/6 | 3/18 | HSSPSTLYESRNKNSVA | NASQRES | QQYHRLPLS | GP_HC |
| not detected | 0/6 | 0/18 | KSSQSVLYEMRFKNSVA | WASTRES | QQYHRLPLS | Ctrl |
| 26 nM | 5/6 | 0/18 | KMSESVLYELRNKNSVA | WASTRER | QQYSRLPLS | Ctrl |
| not detected | 0/6 | 0/18 | KSGQSVLYESRNINSVA | WASTRES | QQYHRAPLS | Ctrl |
| 1.2 nM | 6/6 | 0/18 | TISQTTYWESRNKNSVA | QTSTREE | QDYDRLPLS | En_HC |
| 6.5 nM | 6/6 | 0/18 | MVNGIMDHLSKQTNNVA | ETTTRNE | QQYDRLPLS | En_Gen |